Source: US7112341B1, “Pulmonary administration of dry powder formulations for treating infertility” (Nektar Therapeutics, priority 1999, dated 2006)

Columns and labels:
[1] = Pharmacokinetics of uFSH following pulmonary and subcutaneous administration in cynomolgus monkeys; type: in vivo
[2] = Pharmacokinetics of pulmonary and SC hFSH variant and SC uFSH in cynomolgus monkeys; type: in vivo; conditions: for Serum concentration of immunoreactive rFSH variant / FSH: subcutaneous 2 μg/kg; for AUC0–72hr / AUC0–∞ / CMax / Half-Life / TMax: subcutaneous dose 2 μg/kg

Substance: uFSH: FSH derived from human urine (Vitro Diagnostics, Inc.); mixture of hFSH and hFSH analogs
- Serum concentration of immunoreactive FSH ([1]; PUL 37.2 ± 3.9 μg/kg (high dose, powder 2010), 0 h (predose), mean): 0 mIU/mL
- Serum concentration of immunoreactive FSH ([1]; PUL 37.2 ± 3.9 μg/kg, 0.33 h, individual animals): BQL
- Serum concentration of immunoreactive FSH ([1]; PUL 37.2 ± 3.9 μg/kg, 0.33 h, mean): 0 mIU/mL
- Serum concentration of immunoreactive FSH ([1]; PUL 37.2 ± 3.9 μg/kg, 0.5 h, individual animals): BQL (4×) and 4.3 mIU/mL
- Serum concentration of immunoreactive FSH ([1]; PUL 37.2 ± 3.9 μg/kg, 0.5 h, mean): 0.86 mIU/mL
- Serum concentration of immunoreactive FSH ([1]; PUL 37.2 ± 3.9 μg/kg, 0.75 h, individual animals): 3.8 mIU/mL and BQL (3×) and 6.6 mIU/mL
- Serum concentration of immunoreactive FSH ([1]; PUL 37.2 ± 3.9 μg/kg, 0.75 h, mean): 2.1 mIU/mL
- Serum concentration of immunoreactive FSH ([1]; PUL 37.2 ± 3.9 μg/kg, 1.25 h, individual animals): 57.6 mIU/mL and BQL (2×) and 31.0 mIU/mL and 4.7 mIU/mL
- Serum concentration of immunoreactive FSH ([1]; PUL 37.2 ± 3.9 μg/kg, 1.25 h, mean): 18.7 mIU/mL
- Serum concentration of immunoreactive FSH ([1]; PUL 37.2 ± 3.9 μg/kg, 3.25 h, individual animals): 32.7 mIU/mL and 10.4 mIU/mL and 50.1 mIU/mL and 12.2 mIU/mL and 13.4 mIU/mL
- Serum concentration of immunoreactive FSH ([1]; PUL 37.2 ± 3.9 μg/kg, 3.25 h, mean): 23.8 mIU/mL
- Serum concentration of immunoreactive FSH ([1]; PUL 37.2 ± 3.9 μg/kg, 6.25 h, individual animals): 69.3 mIU/mL and 22.7 mIU/mL and 85.2 mIU/mL and 23.7 mIU/mL and 29.0 mIU/mL
- Serum concentration of immunoreactive FSH ([1]; PUL 37.2 ± 3.9 μg/kg, 6.25 h, mean): 46.0 mIU/mL
- Serum concentration of immunoreactive FSH ([1]; PUL 37.2 ± 3.9 μg/kg, 9.25 h, individual animals): 82.4 mIU/mL and 30.6 mIU/mL and 132.8 mIU/mL and 33.8 mIU/mL and 36.8 mIU/mL
- Serum concentration of immunoreactive FSH ([1]; PUL 37.2 ± 3.9 μg/kg, 9.25 h, mean): 63.3 mIU/mL
- Serum concentration of immunoreactive FSH ([1]; PUL 37.2 ± 3.9 μg/kg, 12.25 h, individual animals): 72.5^(2) mIU/mL and 36.0^(2) mIU/mL and 155.0^(2) mIU/mL and 36.7^(2) mIU/mL and 39.8^(2) mIU/mL
- Serum concentration of immunoreactive FSH ([1]; PUL 37.2 ± 3.9 μg/kg, 12.25 h, mean): 68.0 mIU/mL
- Serum concentration of immunoreactive FSH ([1]; PUL 37.2 ± 3.9 μg/kg, 24.25 h, individual animals): 55.4^(2) mIU/mL and 32.7^(2) mIU/mL and 94.6^(2) mIU/mL and 30.4^(2) mIU/mL and 36.6^(2) mIU/mL
- Serum concentration of immunoreactive FSH ([1]; PUL 37.2 ± 3.9 μg/kg, 24.25 h, mean): 49.9 mIU/mL
- Serum concentration of immunoreactive FSH ([1]; PUL 37.2 ± 3.9 μg/kg, 48.25 h, individual animals): 29.3^(2) mIU/mL and 17.5^(2) mIU/mL and 47.8^(2) mIU/mL and 15.5^(2) mIU/mL and 14.2^(2) mIU/mL
- Serum concentration of immunoreactive FSH ([1]; PUL 37.2 ± 3.9 μg/kg, 48.25 h, mean): 24.9 mIU/mL
- Serum concentration of immunoreactive FSH ([1]; PUL 37.2 ± 3.9 μg/kg, 72.25 h, individual animals): 14.1^(2) mIU/mL and 9.2^(2) mIU/mL and 19.4^(2) mIU/mL and 8.6^(2) mIU/mL and 6.0^(2) mIU/mL
- Serum concentration of immunoreactive FSH ([1]; PUL 37.2 ± 3.9 μg/kg, 72.25 h, mean): 11.5 mIU/mL
- Bioavailability (%) ([1]; SC 2 μg/kg (reference route), mean): 100%
- Serum concentration of immunoreactive FSH ([1]; SC 2 μg/kg, 0 h (predose), individual animals): BQL^(1) and BQL (4×)
- Serum concentration of immunoreactive FSH ([1]; SC 2 μg/kg, 0 h (predose), mean): 0 mIU/mL
- Serum concentration of immunoreactive FSH ([1]; SC 2 μg/kg, 1 h, individual animals): 5.3 mIU/mL (2×) and 4.6 mIU/mL and BQL (2×)
- Serum concentration of immunoreactive FSH ([1]; SC 2 μg/kg, 1 h, mean): 3.0 mIU/mL
- Serum concentration of immunoreactive FSH ([1]; SC 2 μg/kg, 3 h, individual animals): 20.9 mIU/mL and 63.7 mIU/mL and 28.2 mIU/mL and 65.5 mIU/mL and 36.3 mIU/mL
- Serum concentration of immunoreactive FSH ([1]; SC 2 μg/kg, 3 h, mean): 42.9 mIU/mL
- Serum concentration of immunoreactive FSH ([1]; SC 2 μg/kg, 6 h, individual animals): 25.4 mIU/mL and 75.7 mIU/mL and 28.9 mIU/mL and 97.1 mIU/mL and 68.5 mIU/mL
- Serum concentration of immunoreactive FSH ([1]; SC 2 μg/kg, 6 h, mean): 59.1 mIU/mL
- Serum concentration of immunoreactive FSH ([1]; SC 2 μg/kg, 9 h, individual animals): 20.2 mIU/mL and 58.3 mIU/mL and 31.5 mIU/mL and 71.3 mIU/mL and 76.0 mIU/mL
- Serum concentration of immunoreactive FSH ([1]; SC 2 μg/kg, 9 h, mean): 51.5 mIU/mL
- Serum concentration of immunoreactive FSH ([1]; SC 2 μg/kg, 12 h, individual animals): 18.7^(2) mIU/mL and 46.8^(2) mIU/mL and 33.4^(2) mIU/mL and 55.0^(2) mIU/mL and 54.3^(2) mIU/mL
- Serum concentration of immunoreactive FSH ([1]; SC 2 μg/kg, 12 h, mean): 41.6 mIU/mL
- Serum concentration of immunoreactive FSH ([1]; SC 2 μg/kg, 24 h, individual animals): 20.7^(2) mIU/mL and 36.8^(2) mIU/mL and 29.1^(2) mIU/mL and 38.0^(2) mIU/mL and 40.5^(2) mIU/mL
- Serum concentration of immunoreactive FSH ([1]; SC 2 μg/kg, 24 h, mean): 33.0 mIU/mL
- Serum concentration of immunoreactive FSH ([1]; SC 2 μg/kg, 48 h, individual animals): 15.7^(2) mIU/mL and 20.8^(2) mIU/mL and 17.4^(2) mIU/mL (2×) and 14.5^(2) mIU/mL
- Serum concentration of immunoreactive FSH ([1]; SC 2 μg/kg, 48 h, mean): 17.2 mIU/mL
- Serum concentration of immunoreactive FSH ([1]; SC 2 μg/kg, 72 h, individual animals): 9.2^(2) mIU/mL and 9.8^(2) mIU/mL and 8.4^(2) mIU/mL and 8.6^(2) mIU/mL and 5.8^(2) mIU/mL
- Serum concentration of immunoreactive FSH ([1]; SC 2 μg/kg, 72 h, mean): 8.4 mIU/mL
- AUC0–t ([1]; SC 2 μg/kg, individual animals): 1197.1 mIU*h/mL and 2198.4 mIU*h/mL and 1544.4 mIU*h/mL and 2294.2 mIU*h/mL and 2078.1 mIU*h/mL
- AUC0–∞ ([1]; SC 2 μg/kg, individual animals): 2013.4 mIU*h/mL and 2594.5 mIU*h/mL and 1932.5 mIU*h/mL and 2566.8 mIU*h/mL and 2231.3 mIU*h/mL
- CMax ([1]; SC 2 μg/kg, individual animals): 25.4 mIU/mL and 75.7 mIU/mL and 33.4 mIU/mL and 97.1 mIU/mL and 76.0 mIU/mL
- Half-Life ([1]; SC 2 μg/kg, individual animals): 55.5 h and 26.6 h and 29.8 h and 22.3 h and 18.1 h
- TMax ([1]; SC 2 μg/kg, individual animals): 6.0 h (3×) and 12.0 h and 9.0 h
- AUC0–t ([1]; SC 2 μg/kg, mean): 1862.4 mIU*h/mL and 1862 mIU*h/mL
- AUC0–∞ ([1]; SC 2 μg/kg, mean): 2267.7 mIU*h/mL and 2268 mIU*h/mL
- CMax ([1]; SC 2 μg/kg, mean): 61.5 mIU/mL
- Half-Life ([1]; SC 2 μg/kg, mean): 26.4 h
- TMax ([1]; SC 2 μg/kg, mean): 7.8 h
- terminal half-life ([1]; monkey, pulmonary similar to subcutaneous): approximately 24 hours
- time of peak serum concentrations ([1]; monkey, pulmonary, mannitol/citrate formulation): approximately 10 hours
- Serum concentration of immunoreactive rFSH variant / FSH ([2]; 0 h, individual animals): BQL
- Serum concentration of immunoreactive rFSH variant / FSH ([2]; 0 h, mean): 0 ng/mL
- Serum concentration of immunoreactive rFSH variant / FSH ([2]; 1 h, individual animals): 0.77 ng/mL and 0.67 ng/mL and 0.73 ng/mL and 2.93 ng/mL and 1.23 ng/mL
- Serum concentration of immunoreactive rFSH variant / FSH ([2]; 1 h, mean): 1.27 ng/mL
- Serum concentration of immunoreactive rFSH variant / FSH ([2]; 3 h, individual animals): 5.05 ng/mL and 4.38 ng/mL and 3.57 ng/mL and 6.71 ng/mL and 3.55 ng/mL
- Serum concentration of immunoreactive rFSH variant / FSH ([2]; 3 h, mean): 4.65 ng/mL
- Serum concentration of immunoreactive rFSH variant / FSH ([2]; 6 h, individual animals): 6.31 ng/mL and 4.52 ng/mL and 4.76 ng/mL and 6.53 ng/mL and 3.60 ng/mL
- Serum concentration of immunoreactive rFSH variant / FSH ([2]; 6 h, mean): 5.14 ng/mL
- Serum concentration of immunoreactive rFSH variant / FSH ([2]; 9 h, individual animals): 6.30 ng/mL and 4.28 ng/mL and 4.14 ng/mL and 4.85 ng/mL and 3.55 ng/mL
- Serum concentration of immunoreactive rFSH variant / FSH ([2]; 9 h, mean): 4.62 ng/mL
- Serum concentration of immunoreactive rFSH variant / FSH ([2]; 12 h, mean): 3.76 ng/mL
- Serum concentration of immunoreactive rFSH variant / FSH ([2]; 24 h, mean): 2.84 ng/mL
- Serum concentration of immunoreactive rFSH variant / FSH ([2]; 48 h, mean): 1.32 ng/mL
- Serum concentration of immunoreactive rFSH variant / FSH ([2]; 72 h, individual animals): BQL (2×) and 0.86 ng/mL and 0.61 ng/mL and 0.70 ng/mL
- Serum concentration of immunoreactive rFSH variant / FSH ([2]; 72 h, mean): 0.43 ng/mL
- AUC0–72hr ([2]; Mean, N=5): 159.1 ng·h/mL
- AUC0–∞ ([2]; Mean, N=5): 185.7 ng·h/mL
- CMax ([2]; Mean, N=5): 5.18 ng/mL
- Half-Life ([2]; Mean, N=5): 23.22 h
- TMax ([2]; Mean, N=5): 5.40 h
- CMax ([2]; individual monkeys): 6.31 ng/mL and 4.52 ng/mL and 4.76 ng/mL and 6.71 ng/mL and 3.60 ng/mL
- Half-Life ([2]; individual monkeys): 18.66 h and 18.90 h and 27.79 h and 20.06 h and 43.51 h
- TMax ([2]; individual monkeys): 6 hr (4×) and 3 hr
- AUC0–72hr ([2]; individual monkeys (Subject ID 8717, 8720, 8791, 8794, 8795), serum, IRMA): 159.6 ng·h/mL and 146.7 ng·h/mL and 168.4 ng·h/mL and 168.1 ng·h/mL and 152.6 ng·h/mL
- AUC0–∞ ([2]; individual monkeys, serum, IRMA): 169.3 ng·h/mL and 161.6 ng·h/mL and 204.3 ng·h/mL and 178.4 ng·h/mL and 215.1 ng·h/mL

“And” between values parts separate entries of the source, which are not always exact repeats. Identical values can stand only once.
